For orientation: t½ means the time in which the quantity being followed falls by half. A low value points to fast loss. The EC50 is the concentration that produces a half-maximal response.

These results are taken from patent US9822157B2 (priority 2013, dated 2017).

System in the first data set: not listed separately
The data set can be described thus: Mouse PK half-life. The conditions noted are these: half-life in mice. Type of data set: in vivo. The protocol:
(§1) The peptides were also tested for other pharmacokinetic/pharmacodynamic (PK/PD) parameters using methods commonly know by the skilled artisan. These parameters included determinations regarding stability (hours stable in plasma from the indicated human or rat subject), half-life in mice, and in vitro activity (EC50), tested as described in Example 2.
With “Isovaleric acid-DTHFPCIKFEPRSKGCK-NH2 [Compound 184]”, the “Mouse PK T1/2” value is recorded as 36.9 min.
As for “Isovaleric acid-DTHFPCIKFGPRSKGWVCK-NH2 [Compound 9]”, the “Mouse PK T1/2” value is reported as 22.5 min.
Regarding “Isovaleric acid-DTHFPCIKF-K(PEG8)-PRSKGWVCK-NH2 [Compound 150]”, the “Mouse PK T1/2” value was 31.6 min.
On the same count and under the same terms, the figure for “Isovaleric acid-DTHFPCIIFEPRSKGWVCK-NH2 [Compound 105]” is 36.9 min; for “Isovaleric acid-DTHFPICIFGPRSKGWVC-NH2 [Compound 2]” it is 17.4 min.

System in a further data set: not listed separately
Briefly: Stability in rat plasma. The conditions noted are these: hours stable in plasma. Type of data set: in vitro ADME. The protocol:
as §1
Turning to “Hy-DTHFPIC(1)IFC(2)C(3)GC(2)C(4)HRSKC(3)GMC(4)C(1)KT-OH [Hepcidin, reference compound]”, the “Stability Rat” value is “Var”.
As for “Isovaleric acid-DTHFPCIKFEPRSKGCK-NH2 [Compound 184]”, the “Stability Rat” value amounted to 2.12 h.
On to “Isovaleric acid-DTHFPICIFGPRS-K(PEG8)-GWVC-NH2 [Compound 176]”, for which the “Stability Rat” value is 1.62 h.
Take “Isovaleric acid-DTHFPCIEFGPRSKGWVCK-NH2 [Compound 15]”: the “Stability Rat” value came out at 0.15 h.
Consider “Isovaleric acid-DTHFPCIKFGPRSKGWVCK-NH2 [Compound 9]”, for which the “Stability Rat” value is 0.14 h.
For the substance “Isovaleric acid-DTHFPCIIFGPRSRGWVCK-NH2 [Compound 3]”, the “Stability Rat” value amounted to 0.08 h.
The same measure, in the same setting: next, “Isovaleric acid-DTHFPCIKF-K(PEG8)-PRSKGWVCK-NH2 [Compound 150]”: 0.42 h; “Isovaleric acid-DTHFPCIQFGPRSKGWVCK-NH2 [Compound 10]”: 0.12 h.
The same measure, in the same setting: the figure for “Isovaleric acid-DTHFPCIIFEPRSKGWVCK-NH2 [Compound 105]” is 0.68 h; for “Isovaleric acid-DTHFPCIKFGPRSKGWVC-K(PEG8)-NH2 [Compound 153]” it is 0.41 h.
For “Isovaleric acid-DTHFPICIFGPRSKGWVC-NH2 [Compound 2]”, the “Stability Rat” value came out at 0.15 h.

System in another data set: not listed separately
The data set can be described thus: Stability in human serum (LC-MS). Type of data set: in vitro ADME. To be noted: hours stable in plasma, human. How it is done:
Serum stability experiments were undertaken to complement the in vivo results and assist in the design of potent, stable Ferroportin agonists. In order to predict the stability in humans, ex vivo stability studies were initially performed in human serum.
Key peptides (10 μM) were incubated with pre-warmed human serum (Sigma) at 37 degrees C. Samples were taken at various time points up to 24 hours. The samples were separated from serum proteins and analysed for the presence of the peptide of interest using LC-MS. The amount of intact peptide in each sample was calculated using the analyte peak area in relation to the zero time point.
as §1
In the case of “Hy-DTHFPIC(1)IFC(2)C(3)GC(2)C(4)HRSKC(3)GMC(4)C(1)KT-OH [Hepcidin, reference compound]”, the “Stability Human” value turned out to be 2.76 h.
The same measure, in the same setting: the figure for “Isovaleric acid-DTHFPCIKFEPRSKGCK-NH2 [Compound 184]” is 8.16 h.
Take “Isovaleric acid-DTHFPICIFGPRS-K(PEG8)-GWVC-NH2 [Compound 176]”: the “Stability Human” value worked out at 15 h.
Turning to “Isovaleric acid-DTHFPCIKFGPRSKGWVCK-NH2 [Compound 9]”, the “Stability Human” value is 0.57 h.
Regarding “Isovaleric acid-DTHFPCIIFGPRSRGWVCK-NH2 [Compound 3]”, the “Stability Human” value came out at 0.43 h.
On the same count and under the same terms, the figure for “Isovaleric acid-DTHFPCIKF-K(PEG8)-PRSKGWVCK-NH2 [Compound 150]” is 1.35 h; for “Isovaleric acid-DTHFPCIIFEPRSKGWVCK-NH2 [Compound 105]” it is 2.22 h.
On to “Isovaleric acid-DTHFPCIKFGPRSKGWVC-K(PEG8)-NH2 [Compound 153]”, for which the “Stability Human” value was found to be 3.36 h.
“Isovaleric acid-DTHFPICIFGPRSKGWVC-NH2 [Compound 2]”: the “Stability Human” value was 1.99 h.

The same data set, now with this note: human serum, 10 μM peptide, 37 degrees C, up to 24 hours.
“Hy-DTHFPIC(1)IFC(2)C(3)GC(2)C(4)HRSKC(3)GMC(4)C(1)KT-OH [Hepcidin, reference compound]”: the “t½” value is 166 min.
Still for that read-out and setting: next, “Hy-[bhAsp]-THFPICIFGPRSKGWVC-NH2 [Compound 46]”: 126 min; “[Ida]-TH-[Dpa]-[bh-Pro]-CIIFGPRSRGWVCK-NH2 [Compound 8]”: 30.6 min.
Hy-DTHFPCIIF-NH2 [Compound 1]: the “t½” value turned out to be 10.8 min.
As to “Hy-DTHFPICIF-NH2 [Mini-Hepcidin 1-9, reference compound]”, the “t½” value turned out to be 6 min.
Regarding “Isovaleric acid-DTHFPCIIFGPRSRGWVCK-NH2 [Compound 3]”, the “t½” value was 30.6 min.
Consider “Isovaleric acid-DTHFPICIFGPRSKGWVC-NH2 [Compound 2]”, for which the “t½” value stood at 119 min.

The next data set deals with T1, human ferroportin (Homo sapiens, UniProt Q9NP59).
T1 sequence (Q9NP59 1-571): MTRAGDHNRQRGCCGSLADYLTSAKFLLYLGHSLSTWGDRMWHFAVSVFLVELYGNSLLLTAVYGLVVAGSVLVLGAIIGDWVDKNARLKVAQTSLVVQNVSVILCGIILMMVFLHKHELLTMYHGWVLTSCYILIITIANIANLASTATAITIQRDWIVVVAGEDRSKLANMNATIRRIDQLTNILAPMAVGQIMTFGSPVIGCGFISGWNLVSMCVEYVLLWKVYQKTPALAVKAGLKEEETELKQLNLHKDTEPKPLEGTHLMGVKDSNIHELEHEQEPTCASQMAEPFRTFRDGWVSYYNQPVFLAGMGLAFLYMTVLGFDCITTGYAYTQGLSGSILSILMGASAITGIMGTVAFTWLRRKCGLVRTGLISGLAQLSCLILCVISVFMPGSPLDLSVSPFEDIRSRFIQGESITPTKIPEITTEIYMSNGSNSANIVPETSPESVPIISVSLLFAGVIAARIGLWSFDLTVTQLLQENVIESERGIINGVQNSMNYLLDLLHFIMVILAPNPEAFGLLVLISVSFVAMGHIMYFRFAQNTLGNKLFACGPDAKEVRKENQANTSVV
Assay: not given
It counts as cell-based. The conditions noted are these: Hepcidin analog peptides; read-out: Potency EC50. The source says: The cDNA encoding the human ferroportin (SLC40A1) was cloned from a cDNA clone from Origene (NM_014585). The DNA encoding the ferroportin was amplified by PCR using primers also encoding terminal restriction sites for subcloning, but without the termination codon. The ferroportin receptor was subcloned into a mammalian GFP expression vector containing a neomycin (G418) resistance marker in such that the reading frame of the ferroportin was fused in frame with the GFP protein. The fidelity of the DNA encoding the protein was confirmed by DNA sequencing. HEK293 cells were used for transfection of the ferroportin-GFP receptor expression plasmid. The cells were grown according to standard protocol in growth medium and transfected with the plasmids using Lipofectamine (manufacturer's protocol, Invitrogen). […] The cells were propagated and frozen in aliquots.
Compound was added to desired final concentration for at least 18 hours in the incubator. […] Compound was added to desired final concentration for at least 18 hours but no more than 24 hours in the incubator.
A retro inverse peptide is a peptide with a reversed sequence in all D amino acids. […] The EC50 of these reference compounds for ferroportin degradation was determined according to the activity assay described above.
Consider “Isovaleric acid-DTHFPICIFGPRS-K(PEG8)-GWVC-NH2 [Compound 176]”, for which the concentration for a half-maximal effect (EC50) came out at 6 nM.
Still for that read-out and setting: next, “Isovaleric acid-DTHFPCIEFGPRSKGWVCK-NH2 [Compound 15]”: 79 nM; “[Ida]-TH-[Dpa]-[bh-Pro]-CIIFGPRSRGWVCK-NH2 [Compound 8]”: 29 nM; “Isovaleric acid-DTHFPCIKFGPRSKGWVCK-NH2 [Compound 9]”: 32 nM.
Turning to Hy-DTHFPCIIF-NH2 [Compound 1], the EC50 was determined as 133 nM.
The same measure, in the same setting: next, “Isovaleric acid-DTHFPCIIFGPRSRGWVCK-NH2 [Compound 3]”: 15 nM; “Isovaleric acid-DTHFPCIKF-K(PEG8)-PRSKGWVCK-NH2 [Compound 150]”: 7 nM.
For the substance “Isovaleric acid-DTHFPCIQFGPRSKGWVCK-NH2 [Compound 10]”, the EC50 was 35 nM.
For “Isovaleric acid-DTHFPCIIFEPRSKGWVCK-NH2 [Compound 105]”, the EC50 worked out at 10 nM.
In the case of “Isovaleric acid-DTHFPCIKFGPRSKGWVC-K(PEG8)-NH2 [Compound 153]”, the EC50 is 18 nM.
Take “Isovaleric acid-DTHFPCIFEPRSKGCK-NH2 [Compound 185]”: the concentration for a half-maximal effect (EC50) turned out to be 54 nM.
With “Hy-DTHFPCIKF-K(IVA)-PRSKGWVCK-NH2 [Compound 205]”, the EC50 is over 300 nM.
For the substance “Isovaleric acid-AAHFPCIKFGPRSKGWVCK-NH2 [Compound 233]”, the EC50 came to 320 nM.
With “Isovaleric acid-DTAFPCIKFEPRSKEC-NH2 [Compound 267]”, the EC50 was over 1000 nM.
For “Isovaleric acid-DTHFPCIKFEPRSKECK-NH2 [Compound 355]”, the EC50 was 48 nM.
Consider “Heptanoic acid-DTHFPCIKFGPRSKGWVCK-NH2 [Compound 169]”, for which the EC50 is 91 nM.
For “Hy-DTHFPCI-K(IVA)-FGPRSKGWVCK-NH2 [Compound 204]”, the EC50 was over 300 nM.
On the same count and under the same terms, next, “Isovaleric acid-DTHFPCI-K(isoglu-Palm)-FEPRSKGCK-NH2 [Compound 218]”: 10 nM.
On to “Isovaleric acid-HFPCIKFEPRSKGWVC-K(octanoic acid)-NH2 [Compound 261]”, for which the EC50 is over 300 nM.
Same read-out and setting: the figure for “Isovaleric acid-DTHFPCIKF-K(Palm)-PRSKGWVCK-NH2 [Compound 195]” is 9 nM; for “Isovaleric acid-DTHFPCLIFGPRSKGWVCK-NH2 [Compound 93]” it is 19 nM; for “Isovaleric acid-DTHFPCIKFEP-K(isoglu-Palm)-SKGCK-NH2 [Compound 220]” it is 5 nM.
Regarding “Isovaleric acid-DTHFPCIIFGPRSKGWKCK-NH2 [Compound 171]”, the EC50 stood at 48 nM.

The data set is the same for the next values; noted with them: in vitro activity (EC50) tested as in Example 2; read-out: In Vivo Activity EC50.
For the substance “Isovaleric acid-DTHFPCIKFEPRSKGCK-NH2 [Compound 184]”, the EC50 is 16 nM.
Regarding “Isovaleric acid-DTHFPICIFGPRS-K(PEG8)-GWVC-NH2 [Compound 176]”, the EC50 stood at 6 nM.
With “Isovaleric acid-DTHFPCIEFGPRSKGWVCK-NH2 [Compound 15]”, the EC50 stood at 79 nM.
Turning to “Isovaleric acid-DTHFPCIKFGPRSKGWVCK-NH2 [Compound 9]”, the EC50 is 32 nM.
With “Isovaleric acid-DTHFPCIIFGPRSRGWVCK-NH2 [Compound 3]”, the EC50 is 15 nM.
With “Isovaleric acid-DTHFPCIKF-K(PEG8)-PRSKGWVCK-NH2 [Compound 150]”, the 50% effective concentration (EC50) is 7 nM.
In the case of “Isovaleric acid-DTHFPCIQFGPRSKGWVCK-NH2 [Compound 10]”, the EC50 was 35 nM.
For the substance “Isovaleric acid-DTHFPCIIFEPRSKGWVCK-NH2 [Compound 105]”, the EC50 came out at 10 nM.
Regarding “Isovaleric acid-DTHFPCIKFGPRSKGWVC-K(PEG8)-NH2 [Compound 153]”, the EC50 amounted to 18 nM.
On to “Isovaleric acid-DTHFPICIFGPRSKGWVC-NH2 [Compound 2]”, for which the EC50 came out at 5 nM.

The same data set, now with this note: read-out: EC50 (nM) (n = 3); in vitro activity as in Example 2; peptide monomers and dimers dimerized through a single disulphide linkage; n = 3.
On to Hy-DTHFPCIIF-NH2 [Compound 1], for which the concentration giving a half-maximal response (EC50) turned out to be 133 nM.

Still in this data set, the particulars now being: read-out: EC50 (nM) (n > 3); alanine scan of Compound 1.
In the case of Hy-DTHFPCIIF-NH2 [Compound 1], the EC50 amounted to 133 nM.

Staying with this data set, now noted: read-out: EC50 (nM) (n > 3); cysteine replacement scan of Mini-Hepcidin derivatives.
On to Hy-DTHFPCIIF-NH2 [Compound 1], for which the EC50 came out at 133 nM.

Staying with this data set, now noted: read-out: EC50 (nM) (n > 3); peptide dimers, dimer position explored (DIG linker).
Turning to “(Isovaleric acid-DTHFPCIRK-NH2)2 DIG through K9 [Compound 344]”, the EC50 was found to be 45 nM.

Staying with this data set, now noted: read-out: Log dilutions EC50 (nM) (n > 3) (converted); monomers and dimers through a glycol linker on εN of lysine.
As to “Isovaleric acid-DTHFPCIIFGPRSRGWVCK-NH2 [Compound 3]”, the EC50 is 15 nM.
Take “Isovaleric acid-DTHFPICIFGPRSKGWVC-NH2 [Compound 2]”: the EC50 was 4.1 nM.

Still in this data set, the particulars now being: reference compounds, ferroportin degradation; read-out: EC50.
In the case of “Hy-DTHFPIC(1)IFC(2)C(3)GC(2)C(4)HRSKC(3)GMC(4)C(1)KT-OH [Hepcidin, reference compound]”, the EC50 was 169 nM.
